In patent US10023592B2, “Bromodomain inhibitors” (Celgene Quanticel Research, Inc., priority 2013, dated 2018):

Key:
[1] = tested on: Raji, human Burkitts lymphoma cells; experiment: Cell-MTS proliferation assay, Raji; type: cell-based; conditions: 168 hr, class symbols A/B/C
Protocol: (§1) The Cell-MTS assay is a 7-day plate-based colorimetric assay which quantifies the amount of newly generated NADH in the presence or absence of test compound. The NADH level is used for the quantification of cancer cell proliferation.
(§2) Established cancer cell lines with a variety of driving mutations were obtained from American Type Culture Collection (ATCC) and routinely passaged according to ATCC protocols. For routine assay, these cells were seeded at densities which enabled ˜90% confluence after 7 days of culture. Raji, human Burkitts lymphoma cells, (cMYC) were seeded at 15,000 cells per 96-well. HL-60, human proleukemia cells, (NRAS, p16, p53, c-Myc amplified) were seeded at 5,000 cells per 96-well. NCI-H460, human non-small cell lung cancer cells, (KRAS, PIK3CA, STLK11, p16) were seeded at 3,000 cells per 96-well. 24 hr after plating, cells received an 11-point dilution of test compound with final concentration ranges from 100 μM to 2.0 nM. […] At the end of this incubation period, 80 μL of media is removed and 20 μL of CellTiter 96® AQueous Non-Radioactive Cell Proliferation Assay soln (Promega) was added. The cells were incubated until the OD490 was >0.6. IC50 values were calculated using the IDBS XLfit software package and include background subtracted OD490 values and normalization to DMSO controls. […]

[2] = tested on: HL-60, human proleukemia cells; experiment: Cell-MTS proliferation assay, HL-60; type: cell-based; conditions: 168 hr, class symbols A/B/C
Protocol: as §1, §2

[3] = tested on: NCI-H460, human non-small cell lung cancer cells; experiment: Cell-MTS proliferation assay, NCI-H460; type: cell-based; conditions: 168 hr, class symbols A/B/C
Protocol: as §1, §2

BRD4(BD1) = BRD4(BD1) (Homo sapiens (Human), UniProt O60885); experiment: In vitro enzyme inhibition assay (BRD4 AlphaScreen); type: binding
Protocol: His-tagged BRD4 was cloned, expressed and purified to homogeneity. […] BRD4 binding and inhibition was assessed by monitoring the interaction of biotinylated H4-tetraacetyl peptide (AnaSpec, H4K5/8/12/16(Ac), biotin-labeled) with the target using the AlphaScreen technology (Life Technologies). […] After 20 min incubation at room temp, Alpha streptavidin donor beads and Nickel Chelate acceptor beads were added to a final concentration of 5 μg/mL.
The ability of the compounds disclosed herein to inhibit BRD4 activity was quantified and the respective IC50 value was determined.

## CCS(=O)(=O)Nc1cccc(-c2cn(C)c(=O)c3ccc(C)cc23)c1 [Example 75, N-[3-(2,6-dimethyl-1-oxoisoquinolin-4-yl)phenyl]ethanesulfonamide]
[1]
  IC50: < 500 nM
[2]
  IC50: < 500 nM
[3]
  IC50: > 5000 nM

## CCS(=O)(=O)Nc1cccc(-c2cn(C)c(=O)c3ccccc23)c1 [Example 13, N-[3-(2-methyl-1-oxoisoquinolin-4-yl)phenyl]ethanesulfonamide]
[1]
  IC50: < 500 nM
[2]
  IC50: < 500 nM

## CCCCc1cnc(NS(=O)(=O)CC)nc1-c1ccc(=O)n(C)c1 [Example 358, N-[5-butyl-4-(1-methyl-6-oxopyridin-3-yl)pyrimidin-2-yl]ethanesulfonamide]
BRD4(BD1)
  IC50: < 500 nM
